From patent US10668061B2, “Mouse with D4R iRNA in the intercalating cell mass of the amygdala” (POSTECH ACADEMY-INDUSTRY FOUNDATION, priority 2016, dated 2020)

Tested on: dorsal ITC neurons
Experiment: STDP-induced DA-dependent LTD (DA-LTD) in dorsal ITC neurons, amygdala slice whole-cell recordings
Format: cell-based, mice
Description: To compare mPSCs without or after STDP, KCl-based and K-gluconate-based internal solutions were used for recording mIPSCs and mEPSCs, respectively. K-gluconate based solution was also used to record EPSCs and IPSCs evoked by interleaved stimulation. Series resistance (10-30 MΩ) was monitored throughout all experiments. mEPSCs were recorded at −70 mV holding potential in the presence of 1 μM tetrodotoxin (TTX) and 100 μM picrotoxin (Tocris, UK) while mIPSCs were measured at −70 mV in the presence of 1 μM TTX, 25 μM NBQX, and 50 μM 2-amino-5-phosphonovaleric acid (APV, Tocris). Miniature PSCs were analyzed with MiniAnalysis (Synaptosoft, Fort Lee, N.J.) or Clampfit 10.1 software (Molecular Devices). For PSC recordings with interleaved stimulation, the holding potential was briefly (˜40 ms) changed from −70 mV to +10 mV to reach the reversal potential of EPSC for isolation of putative IPSCs. For STDP experiments, stimulus intensity was adjusted to elicit EPSPs displaying 25%-30% of the maximum amplitudes. After obtaining stable baseline recording, 80 presynaptic stimuli were delivered at 2 Hz via metal stimulating electrode placed in LA while paired with action potentials induced by injection of depolarizing current to postsynaptic neurons. Quantal contents were estimated by obtaining the inverse square of the coefficient of variation (1/CV^2). […]. […]

Q: For `CCCN1CCC[C@@H]2Cc3n[nH]cc3C[C@H]21` [quinpirole], which “induction of LTD at the dorsal ITC by receptor agonist” value is on record?
A: did not
